Measured values from PMC10957775, “Integrated chemical characterization, metabolite profiling, and pharmacokinetics analysis of Zhijun Tangshen Decoction by UPLC-Q/TOF-MS” (Frontiers in Pharmacology, 2024).

Columns and labels:
[1] = Multi-compound pharmacokinetics of ZJTSD in rat serum, semi-quantitative UPLC-Q/TOF-MS (peak area ratio versus time, non-compartmental); details: prototype compounds of ZJTSD absorbed into rat serum; mean±SD, n=3; in h
[2] = rat, in vivo

| Tmax [2] | Molecule | MRT(0→t) [1] | Tmax [1] | t1/2 [1] |
| --- | --- | --- | --- | --- |
| – | 1-(5-Hydroxym-ethyl-tetrahydro-furan-2-yl)-9H-β-carboline-3-carboxylic acid [P32] | 5.02±0.68 | 1.67±2.02 | 4.52±2.85 |
| 1.67±2.02 | Cc1cc(O)c2c(c1)C(=O)c1cc(C(=O)O)cc(O)c1C2=O [P19, 6-Methyl-rhein] | – | – | – |
| – | O=C1CCCn2c(CO)ccc21 [P34, Polygonatine A] | – | 1.67±2.02 | – |

Like-named read-outs stand apart in the source and are kept apart here.
